Test results: PubChem BioAssay (NCI)
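A five-concentration, 48-hour dose response in 96-well plates underlies each endpoint, interpolated linearly between surrounding concentrations. TGI: total growth inhibition.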

Experiments:
Assay in all cases: NCI tumour cell line growth inhibition, 48 h
PC-3 prostate = system: PC-3 prostate
A549 NSCLC = system: A549 NSCLC
OVCAR-4 ovarian = system: OVCAR-4 ovarian
SW-620 colon = system: SW-620 colon
SK-MEL-28 melanoma = system: SK-MEL-28 melanoma
OVCAR-3 ovarian = system: OVCAR-3 ovarian
SNB-19 CNS = system: SNB-19 CNS
U251 CNS = system: U251 CNS
KM12 colon = system: KM12 colon
SK-MEL-5 melanoma = system: SK-MEL-5 melanoma
NCI-H522 lung = system: NCI-H522 lung
HT29 colon = system: HT29 colon
LOX IMVI melanoma = system: LOX IMVI melanoma
NCI-H23 lung = system: NCI-H23 lung
MOLT-4 leukemia = system: MOLT-4 leukemia
MDA-N = system: MDA-N
A498 renal = system: A498 renal
BT-549 breast = system: BT-549 breast
CCRF-CEM leukemia = system: CCRF-CEM leukemia
SN12C renal = system: SN12C renal
T-47D breast = system: T-47D breast
HOP-62 NSCLC = system: HOP-62 NSCLC
SF-268 CNS = system: SF-268 CNS
SK-OV-3 ovarian = system: SK-OV-3 ovarian
EKVX NSCLC = system: EKVX NSCLC
HCT-15 colon = system: HCT-15 colon
MCF7 breast = system: MCF7 breast
OVCAR-8 ovarian = system: OVCAR-8 ovarian
SK-MEL-2 melanoma = system: SK-MEL-2 melanoma
MDA-MB-231 breast = system: MDA-MB-231 breast
SR leukemia = system: SR leukemia
HCT-116 colon = system: HCT-116 colon
NCI-H226 lung = system: NCI-H226 lung
ACHN renal = system: ACHN renal
UO-31 renal = system: UO-31 renal
K-562 leukemia = system: K-562 leukemia
COLO 205 colon = system: COLO 205 colon
IGROV1 ovarian = system: IGROV1 ovarian
HOP-92 NSCLC = system: HOP-92 NSCLC
NCI/ADR-RES ovarian = system: NCI/ADR-RES ovarian
RPMI-8226 leukemia = system: RPMI-8226 leukemia
786-0 renal = system: 786-0 renal
UACC-62 melanoma = system: UACC-62 melanoma
SF-539 CNS = system: SF-539 CNS
MALME-3M melanoma = system: MALME-3M melanoma
CAKI-1 renal = system: CAKI-1 renal
MDA-MB-435 = system: MDA-MB-435
M14 melanoma = system: M14 melanoma
OVCAR-5 ovarian = system: OVCAR-5 ovarian
SF-295 CNS = system: SF-295 CNS
DU-145 prostate = system: DU-145 prostate
TK-10 renal = system: TK-10 renal
HL-60(TB) leukemia = system: HL-60(TB) leukemia

Measured: TGI

O=C(Cc1ccc(Cl)c(Cl)c1)N[C@@H]1CCCC[C@@H]1N1CCCC1
39.5 µM: MALME-3M melanoma
87.6 µM: TK-10 renal
37.4 µM: UACC-62 melanoma
58.7 µM: SK-MEL-28 melanoma
35.1 µM: SK-MEL-5 melanoma
39.2 µM: COLO 205 colon
96.9 µM: SF-295 CNS
64.3 µM: M14 melanoma
> 100 µM: all other assays above
